Experimental data from paper PMC3491036, “Xanthurenic Acid Binds to Neuronal G-Protein-Coupled Receptors That Secondarily Activate Cationic Channels in the Cell Line NCB-20” (PLoS ONE, 2012).
Like-named read-outs stand apart in the source and are kept apart here.

Legend:
[1] = tested on: differentiated NCB-20 cells; conditions: XA 20–30 µM
Protocol: NCB-20 cells were plated at low density (10^4 cells/dish) in 35-mm dishes and differentiated with 1 mM db-cAMP. The culture medium was replaced twice a week and the cells were used after 5 days in culture. Cells were recorded either in cell-attached or whole-cell configuration of the patch-clamp technique using an Axopatch-B200 amplifier (Axon Instruments, CA, USA) in its voltage-clamp mode. […] Junction potentials were calculated using the routine procedure in the Clampex software (Axon instruments, CA, USA) and taken into account for current-voltage (I–V) relationships and reversal potential calculation according to the recording configuration.
Data were analyzed offline using the clampfit routine of the Pclamp software package. The given results are means±SEM and statistical significance of the difference between means was determined using one way ANOVA followed by Dunnett's Multiple Comparison test.

[2] = tested on: XA binding sites on crude synaptosomal membranes from rat brain; experiment: [3H]-XA saturation and kinetic binding on crude synaptosomal membranes from rat brain; conditions: in the presence of 1 mM non-radioactive XA, pH 7.4, 0°C
Protocol: Brains were rapidly extracted from adult male Wistar rats killed by decapitation after being stunned. All the following procedures were done with buffers cooled at 0°C. Brains were homogenized with a motor driven Teflon/glass apparatus in 10 vol (W/V) of sucrose 0.32 M containing potassium phosphate buffer pH 7.2 and 2 mM EDTA. After centrifugation at 1,500 g for 10 min to remove the crude nuclear fraction, the supernatant was spun at 35,000 g for 20 min. The pellet obtained was resuspended in lysis buffer (2 mM EDTA/water pH 6.0 at 0°C, spun at 100,000 g for 20 min). After washing the pellet with potassium phosphate buffer 50 mM, pH 6.0, the crude membrane fraction was directly used for further experiments or stored at −80°C.
Bound from free ligand was separated by rapid filtration on 25 mm Whatman GF/B filters and washing with incubation buffer (3×3 ml at 0°C). Radioactivity on filters was measured by liquid scintillation counting.

O=C(O)c1cc(O)c2cccc(O)c2n1 [XA, Xanthurenic acid]
cellular conductance activated by XA ([1]; high chloride pipette medium): 11.1±2.6 nS | cellular conductance activated by XA ([1]; low chloride pipette medium): 12.7±3.2 nS | dissociation rate constant (Koff) [2]: 1.26 min⁻¹
